The list shows a part of the results, in another mix than the full data. Activity calls are given as the source filed them. Rule as the data show it: active = inhibition above about 30%; inconclusive = no clear call, values can overlap the other calls; inactive = below that.
biological target: N-formyl peptide receptor 2 (Homo sapiens) (UniProt P25090); assay: small molecules displacing FPRL1 fluorescent ligand – cell-based, FPR counter-screen, flow cytometry, primary screen (AID 441); details: FPRL1-expressing cells, fluorescent ligand binding inhibition, stronger effect = higher value, concentration not given here;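 also: 0% = buffer alone and 100% = receptor blocker peptide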

Protein sequences, listed by entry. Tags and fused reporters are not part of them.
UniProt P25090, whole entry: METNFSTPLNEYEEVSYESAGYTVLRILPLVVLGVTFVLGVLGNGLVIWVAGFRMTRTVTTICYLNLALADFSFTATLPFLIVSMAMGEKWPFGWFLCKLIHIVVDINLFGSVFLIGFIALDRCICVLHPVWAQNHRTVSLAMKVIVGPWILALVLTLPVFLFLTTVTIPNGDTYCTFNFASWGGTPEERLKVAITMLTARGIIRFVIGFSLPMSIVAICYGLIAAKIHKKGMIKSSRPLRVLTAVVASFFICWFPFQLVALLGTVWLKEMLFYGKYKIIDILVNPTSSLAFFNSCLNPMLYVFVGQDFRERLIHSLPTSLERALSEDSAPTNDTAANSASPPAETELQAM

| Compound | inhibition |
| --- | --- |
| N#CC1(Nc2ccccc2)CCN(CCc2ccccc2)CC1 | inactive: -1.5% |
| Fc1ccccc1NC1CCN(Cc2ccccc2)CC1 | inactive: -2% |
